# Target: Bfl-1 (Homo sapiens (Human), UniProt Q16548)
# The chains behind the UniProt entries cited, without tags or fusion partners. Where a name states a change or a piece, a line headed by the entry shows the natural chain unless it says otherwise.
# UniProt Q16548: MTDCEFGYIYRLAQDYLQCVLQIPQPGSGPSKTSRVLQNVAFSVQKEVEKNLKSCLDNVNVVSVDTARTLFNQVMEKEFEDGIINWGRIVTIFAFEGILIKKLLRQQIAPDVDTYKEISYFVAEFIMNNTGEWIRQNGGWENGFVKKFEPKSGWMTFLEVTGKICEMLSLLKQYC
# Assay: Fluorescence polarization competitive binding assay (FPA), Bfl-1
# Details: displacement of BH3 peptide
structure (smiles),measurement,value
"CC1=C(C2=C(C)C(=O)c3c(cc(O)c(O)c3CCc3ccc(C)cc3)C2=O)C(=O)c2cc(O)c(O)c(CCc3ccc(C)cc3)c2C1=O [Compound 6f, 6,6′,7,7′-tetrahydroxy-3,3′-dimethyl-5,5′-bis(4-methylphenethyl)-2,2′-binaphthyl-1,1′,4,4′-tetraone]",IC50,14 µM

# Source: patent publication US8937193B2, “Apogossypolone derivatives as anticancer agents” (Sanford-Burnham Medical Research Institute, priority 2009, dated 2015)
